From patent publication US9527840B2, “Substituted-quinoxaline-type piperidine compounds and the uses thereof” (priority 2007, dated 2016)

Columns and labels:
[1] = molecular target: human opioid receptor-like (ORL-1) (Homo sapiens, UniProt P41146); assay: In vitro ORL-1 receptor functional assay ([35S]GTPγS binding); type: biochemical; conditions: mean ± SEM; for EC50: read-out: ORL-1 GTPγS EC50
kappa opioid receptor = kappa opioid receptor (Homo sapiens, UniProt P41145); assay: In vitro kappa-opioid receptor functional assay ([35S]GTPγS); type: biochemical; conditions: mean ± SEM; for EC50: read-out: Kappa opioid receptor GTPγS EC50
[2] = molecular target: recombinant delta opioid receptor (Homo sapiens, UniProt P41143); assay: In vitro delta-opioid receptor binding assay ([3H]-Naltrindole displacement)
μ-opioid receptor = μ-opioid receptor (Homo sapiens, UniProt P35372); assay: In vitro mu-opioid receptor functional assay ([35S]GTPγS); type: biochemical; conditions: mean ± SEM; for EC50: read-out: Mu opioid receptor GTPγS EC50

O=C(O)CNc1nc2ccccc2n([C@H]2C[C@H]3CC[C@@H](C2)N3C2CCCCCCC2)c1=O
ORL-1 GTPγS Emax [1]: 55.3 ± 5.8% | EC50 [1]: 400 nM

O=C(O)CC1CCN(c2nc3ccccc3n([C@H]3C[C@H]4CC[C@@H](C3)N4C3CCCCCCC3)c2=O)C1 (stereo partly drawn)
ORL-1 GTPγS Emax [1]: 73 ± 2% | EC50 [1]: 924 nM

O=C(O)C(CO)NCCNc1nc2ccccc2n([C@H]2C[C@H]3CC[C@@H](C2)N3C2CCCCCCC2)c1=O (stereo partly drawn)
ORL-1 GTPγS Emax [1]: 53.7 ± 2.3% | EC50 [1]: 85 nM | Kappa opioid receptor GTPγS Emax (kappa opioid receptor): 9.7 ± 1.8% | EC50 (kappa opioid receptor): 4840 nM | Ki [2]: > 20000 nM

O=C(O)C1CCCN1C(=O)CNc1nc2ccccc2n([C@H]2C[C@H]3CC[C@@H](C2)N3C2CCCCCCC2)c1=O (stereo partly drawn)
ORL-1 GTPγS Emax [1]: 73.3 ± 1.7% | EC50 [1]: 3860 nM | Kappa opioid receptor GTPγS Emax (kappa opioid receptor): 6.3% | EC50 (kappa opioid receptor): 4590 nM | Ki [2]: > 20000 nM

O=C(Nc1ccc(=O)[nH]c1)c1nc2ccccc2n([C@@H]2C[C@H]3CC[C@@H](C2)N3C2CCCCCCC2)c1=O
ORL-1 GTPγS Emax [1]: 115 ± 5% | EC50 [1]: 1360 nM | Ki [2]: > 100000 nM

O=C(O)c1nc2ccccc2n([C@H]2C[C@H]3CC[C@@H](C2)N3C23CC4CC(CC(C4)C2)C3)c1=O
ORL-1 GTPγS Emax [1]: 80 ± 4.8%

CCOC(=O)c1nc2ccccc2n([C@H]2C[C@H]3CC[C@@H](C2)N3C2CCCCCCC2)c1=O
ORL-1 GTPγS Emax [1]: 58.3 ± 1.6% | EC50 [1]: 210 nM | Mu opioid receptor GTPγS Emax (μ-opioid receptor): 3.0 ± 0.4% | EC50 (μ-opioid receptor): 643 nM | Kappa opioid receptor GTPγS Emax (kappa opioid receptor): 1.0 ± 2.0%

O=C(O)c1nc2ccccc2n([C@H]2C[C@H]3CC[C@@H](C2)N3C2Cc3cccc4cccc2c34)c1=O (stereo partly drawn)
ORL-1 GTPγS Emax [1]: 99.3 ± 1.3% | EC50 [1]: 1020 nM

O=C(O)c1ccncc1Nc1nc2ccccc2n([C@H]2C[C@H]3CC[C@@H](C2)N3C2CCCCCCC2)c1=O
ORL-1 GTPγS Emax [1]: 58 ± 1.2% | EC50 [1]: 212 nM | Kappa opioid receptor GTPγS Emax (kappa opioid receptor): 10.0 ± 1.2% | EC50 (kappa opioid receptor): 13400 nM

O=C(O)c1nc2ccccc2n([C@H]2C[C@H]3CCC[C@@H](C2)N3C2CCCCCCCC2)c1=O
ORL-1 GTPγS Emax [1]: 96.5 ± 1.9% | EC50 [1]: 11.1 nM | Mu opioid receptor GTPγS Emax (μ-opioid receptor): 17.3 ± 2.9% | EC50 (μ-opioid receptor): 3390 nM | Kappa opioid receptor GTPγS Emax (kappa opioid receptor): 12.7% | EC50 (kappa opioid receptor): 1770 nM

O=C(O)c1nc2ccccc2n(C2CCN(C3CCCCCCC3)CC2)c1=O
ORL-1 GTPγS Emax [1]: 65.3 ± 2.6% | EC50 [1]: 964 nM

COc1ccc(NC(=O)c2nc3ccccc3n([C@@H]3C[C@H]4CC[C@@H](C3)N4C3CCCCCCC3)c2=O)cn1
ORL-1 GTPγS Emax [1]: 110.5 ± 6.5% | EC50 [1]: 2350 nM | Kappa opioid receptor GTPγS Emax (kappa opioid receptor): 9.0 ± 1.2% | EC50 (kappa opioid receptor): 3780 nM

O=C(O)CC1CCN(c2nc3ccccc3n([C@H]3C[C@H]4CC[C@@H](C3)N4C3CCCCCCC3)c2=O)CC1
ORL-1 GTPγS Emax [1]: 50.3 ± 4.4%

O=C(O)Cc1csc(NC(=O)c2nc3ccccc3n([C@H]3C[C@H]4CC[C@@H](C3)N4C3CCCCCCC3)c2=O)n1
ORL-1 GTPγS Emax [1]: 29 ± 3% | EC50 [1]: 503 nM

CC(C)(Nc1nc2ccccc2n([C@H]2C[C@H]3CC[C@@H](C2)N3C2CCCCCCC2)c1=O)C(=O)O
Ki [2]: > 20000 nM

NC(=O)CN(CCNc1nc2ccccc2n([C@H]2C[C@H]3CC[C@@H](C2)N3C2CCCCCCC2)c1=O)CC(=O)O
ORL-1 GTPγS Emax [1]: 80.3 ± 3.8% | EC50 [1]: 277 nM | Kappa opioid receptor GTPγS Emax (kappa opioid receptor): 9.3 ± 1.3% | EC50 (kappa opioid receptor): 4460 nM | Ki [2]: > 20000 nM

O=C(O)[C@H](CO)Nc1nc2ccccc2n([C@H]2C[C@H]3CC[C@@H](C2)N3C2CCCCCCC2)c1=O
ORL-1 GTPγS Emax [1]: 29 ± 2% | EC50 [1]: 19.1 nM

CCOC(=O)c1nc2ccccc2n([C@H]2C[C@H]3CCC[C@@H](C2)N3C2CCCCCCC2)c1=O
ORL-1 GTPγS Emax [1]: 58.3 ± 1.9% | EC50 [1]: 103 nM | Mu opioid receptor GTPγS Emax (μ-opioid receptor): 7.7 ± 0.6% | EC50 (μ-opioid receptor): 9870 nM | Kappa opioid receptor GTPγS Emax (kappa opioid receptor): 10.3 ± 5.3% | EC50 (kappa opioid receptor): 6240 nM

O=C(O)CNC(=O)CNc1nc2ccccc2n([C@H]2C[C@H]3CC[C@@H](C2)N3C2CCCCCCC2)c1=O
ORL-1 GTPγS Emax [1]: 67 ± 1.5% | EC50 [1]: 956 nM

O=C(O)c1nc2ccccc2n(C2CC3CCC(C2)N3C23CC4CC(CC(C4)C2)C3)c1=O (stereo not drawn)
ORL-1 GTPγS Emax [1]: 59.7 ± 0.3% | EC50 [1]: 40.6 nM | Mu opioid receptor GTPγS Emax (μ-opioid receptor): 23 ± 1%

O=C(O)[C@@H](Nc1nc2ccccc2n([C@H]2C[C@H]3CC[C@@H](C2)N3C2CCCCCCC2)c1=O)c1ccccc1
ORL-1 GTPγS Emax [1]: 60% | EC50 [1]: 946 nM | Kappa opioid receptor GTPγS Emax (kappa opioid receptor): 6.0 ± 1.5% | EC50 (kappa opioid receptor): 1940 nM | Ki [2]: > 20000 nM

O=C1CN(c2nc3ccccc3n([C@H]3C[C@H]4CC[C@@H](C3)N4C3CCCCCCC3)c2=O)CCN1
Ki [2]: > 20000 nM

O=C(O)[C@H](Cc1ccccc1)Nc1nc2ccccc2n([C@H]2C[C@H]3CC[C@@H](C2)N3C2CCCCCCC2)c1=O
ORL-1 GTPγS Emax [1]: 69% | EC50 [1]: 1210 nM | Mu opioid receptor GTPγS Emax (μ-opioid receptor): 10.5% | EC50 (μ-opioid receptor): 1750 nM | Kappa opioid receptor GTPγS Emax (kappa opioid receptor): 3.7% | EC50 (kappa opioid receptor): 9700 nM

O=C(O)c1nc2ccccc2n([C@H]2C[C@H]3CCC[C@@H](C2)N3C2C3CCCC2CCC3)c1=O (stereo partly drawn)
ORL-1 GTPγS Emax [1]: 97.5 ± 1.3% | EC50 [1]: 106 nM

O=C(O)C1(O)CCN(c2nc3ccccc3n([C@H]3C[C@H]4CC[C@@H](C3)N4C3CCCCCCC3)c2=O)CC1
ORL-1 GTPγS Emax [1]: 36.5% | EC50 [1]: 104 nM | Mu opioid receptor GTPγS Emax (μ-opioid receptor): 11.5% | EC50 (μ-opioid receptor): 4940 nM | Kappa opioid receptor GTPγS Emax (kappa opioid receptor): 3.3% | EC50 (kappa opioid receptor): 3340 nM

CC(=O)NC1(C(=O)O)CCN(c2nc3ccccc3n([C@H]3C[C@H]4CC[C@@H](C3)N4C3CCCCCCC3)c2=O)CC1
ORL-1 GTPγS Emax [1]: 46.7 ± 1.9% | EC50 [1]: 1760 nM | Kappa opioid receptor GTPγS Emax (kappa opioid receptor): 0% | EC50 (kappa opioid receptor): > 20000 nM | Ki [2]: > 20000 nM

O=C(Nc1ccc(=O)[nH]c1)c1nc2ccccc2n([C@H]2C[C@H]3CC[C@@H](C2)N3C2CCCCCCC2)c1=O
ORL-1 GTPγS Emax [1]: 87.3 ± 3.9% | EC50 [1]: 67.6 nM | Mu opioid receptor GTPγS Emax (μ-opioid receptor): 8.7 ± 0.3% | EC50 (μ-opioid receptor): 5110 nM | Kappa opioid receptor GTPγS Emax (kappa opioid receptor): 8.3 ± 0.9% | EC50 (kappa opioid receptor): 1360 nM

O=C(O)c1nc2ccccc2n([C@H]2C[C@H]3CC[C@@H](C2)N3C2CCCCCCCCC2)c1=O
ORL-1 GTPγS Emax [1]: 106.3 ± 0.9% | EC50 [1]: 28.1 nM | Mu opioid receptor GTPγS Emax (μ-opioid receptor): 14.7 ± 1.5% | EC50 (μ-opioid receptor): 5700 nM | Kappa opioid receptor GTPγS Emax (kappa opioid receptor): 20.0% | EC50 (kappa opioid receptor): 1260 nM

O=C(NC(Cc1ccccc1)C(=O)O)c1nc2ccccc2n([C@H]2C[C@H]3CC[C@@H](C2)N3C2CCCCCCC2)c1=O (stereo partly drawn)
ORL-1 GTPγS Emax [1]: 80.0 ± 1.7% | EC50 [1]: 199 nM | Mu opioid receptor GTPγS Emax (μ-opioid receptor): 8.9 ± 0.5% | Kappa opioid receptor GTPγS Emax (kappa opioid receptor): 13.0 ± 2.3% | EC50 (kappa opioid receptor): 3730 nM

NC1(C(=O)O)CCN(c2nc3ccccc3n([C@H]3C[C@H]4CC[C@@H](C3)N4C3CCCCCCC3)c2=O)C1 (stereo partly drawn)
ORL-1 GTPγS Emax [1]: 83.3 ± 5.4% | EC50 [1]: 125 nM | Kappa opioid receptor GTPγS Emax (kappa opioid receptor): 6.3 ± 0.9% | EC50 (kappa opioid receptor): 3210 nM | Ki [2]: > 20000 nM

O=C(O)CN(CCNc1nc2ccccc2n([C@H]2C[C@H]3CC[C@@H](C2)N3C2CCCCCCC2)c1=O)CC(=O)O
ORL-1 GTPγS Emax [1]: 101.3% | EC50 [1]: 53.6 nM | Ki [2]: > 20000 nM

O=C(O)c1nc2ccccc2n([C@H]2C[C@H]3CCC[C@@H](C2)N3C2CCCCCCC2)c1=O
ORL-1 GTPγS Emax [1]: 87.3 ± 5.0% | EC50 [1]: 114 nM | Mu opioid receptor GTPγS Emax (μ-opioid receptor): 11.0 ± 0.6% | EC50 (μ-opioid receptor): 3920 nM | Kappa opioid receptor GTPγS Emax (kappa opioid receptor): 3.7 ± 0.3% | EC50 (kappa opioid receptor): 450 nM

O=C(O)c1nc2ccccc2n([C@H]2C[C@H]3COC[C@@H](C2)N3C2CCCCCCC2)c1=O
ORL-1 GTPγS Emax [1]: 95.8 ± 3.6% | EC50 [1]: 4250 nM

N[C@@H]1CCN(c2nc3ccccc3n([C@H]3C[C@H]4CC[C@@H](C3)N4C3CCCCCCC3)c2=O)C1
Mu opioid receptor GTPγS Emax (μ-opioid receptor): 9.7 ± 0.7% | Kappa opioid receptor GTPγS Emax (kappa opioid receptor): 15.3 ± 4.1%

O=C(O)C1CCN(c2nc3ccccc3n([C@H]3C[C@H]4CC[C@@H](C3)N4C3CCCCCCC3)c2=O)CC1
ORL-1 GTPγS Emax [1]: 74.7 ± 4.5% | EC50 [1]: 1230 nM | Kappa opioid receptor GTPγS Emax (kappa opioid receptor): 0.7 ± 0.9%

O=C(NC(Cc1c[nH]cn1)C(=O)O)c1nc2ccccc2n([C@H]2C[C@H]3CC[C@@H](C2)N3C2CCCCCCC2)c1=O (stereo partly drawn)
ORL-1 GTPγS Emax [1]: 53.3 ± 0.6% | EC50 [1]: 361 nM | Mu opioid receptor GTPγS Emax (μ-opioid receptor): 20.0 ± 0.6% | EC50 (μ-opioid receptor): 36400 nM | Kappa opioid receptor GTPγS Emax (kappa opioid receptor): 63 ± 11% | EC50 (kappa opioid receptor): 46500 nM
